Test results taken from US20060063766A1, “Use of aryl- and heteroaryl-substituted tetrahydroisoquinolines to block reuptake of norepinephrine, dopamine, and serotonin” (priority 2004, published 2006).

Chains of the proteins cited; added tags and fusions are not shown.
UniProt P23975, whole entry: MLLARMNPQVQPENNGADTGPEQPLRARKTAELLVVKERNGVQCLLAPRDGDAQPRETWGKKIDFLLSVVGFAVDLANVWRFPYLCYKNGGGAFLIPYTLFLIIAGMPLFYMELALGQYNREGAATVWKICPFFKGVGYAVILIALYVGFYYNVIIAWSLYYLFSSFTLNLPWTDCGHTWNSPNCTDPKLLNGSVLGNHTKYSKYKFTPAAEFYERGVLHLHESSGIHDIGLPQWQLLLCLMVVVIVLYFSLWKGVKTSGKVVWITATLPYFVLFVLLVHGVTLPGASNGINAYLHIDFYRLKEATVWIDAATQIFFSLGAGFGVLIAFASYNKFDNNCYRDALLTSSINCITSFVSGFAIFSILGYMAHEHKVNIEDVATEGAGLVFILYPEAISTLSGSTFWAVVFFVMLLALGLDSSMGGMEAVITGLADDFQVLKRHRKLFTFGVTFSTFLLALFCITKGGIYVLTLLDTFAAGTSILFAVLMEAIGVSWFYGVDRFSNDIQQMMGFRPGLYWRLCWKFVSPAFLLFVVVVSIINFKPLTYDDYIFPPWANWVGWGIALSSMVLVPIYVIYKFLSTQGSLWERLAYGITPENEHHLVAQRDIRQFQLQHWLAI
UniProt Q01959, whole entry, looked up: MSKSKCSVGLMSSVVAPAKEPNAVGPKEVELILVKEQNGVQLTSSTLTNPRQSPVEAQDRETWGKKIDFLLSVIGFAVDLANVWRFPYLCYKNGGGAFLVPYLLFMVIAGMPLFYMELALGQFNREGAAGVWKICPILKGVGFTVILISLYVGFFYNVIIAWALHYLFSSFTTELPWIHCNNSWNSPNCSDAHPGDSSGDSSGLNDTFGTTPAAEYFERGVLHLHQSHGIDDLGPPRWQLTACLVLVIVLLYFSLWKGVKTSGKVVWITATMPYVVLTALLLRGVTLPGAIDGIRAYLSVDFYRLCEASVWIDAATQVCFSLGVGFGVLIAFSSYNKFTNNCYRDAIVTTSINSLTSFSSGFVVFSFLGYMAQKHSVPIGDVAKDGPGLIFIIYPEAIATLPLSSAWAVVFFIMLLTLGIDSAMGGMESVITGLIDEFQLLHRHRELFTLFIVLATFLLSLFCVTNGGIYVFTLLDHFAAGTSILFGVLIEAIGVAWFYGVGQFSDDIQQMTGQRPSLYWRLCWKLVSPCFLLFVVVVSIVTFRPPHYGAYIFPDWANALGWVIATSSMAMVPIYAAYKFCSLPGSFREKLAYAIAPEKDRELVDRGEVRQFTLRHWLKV

How the values were obtained:
[1] = target: NET (Homo sapiens, UniProt P23975); test: Primary binding assay, NET binding ([3H] Nisoxetine); settings: for inhibition at 0.1 µM: read-out: % inhibition at 100 nM concentration of test compound, NET
[2] = target: DAT (Homo sapiens, UniProt Q01959); test: biochemical; assay type: binding

Q: With `CN1Cc2cc(-c3cnccn3)ccc2C(c2cc3ccccc3s2)C1` (racemic) [Example 71, (±)-4-(benzo[b]thiophen-2-yl)-2-methyl-7-(pyrazin-2-yl)-1,2,3,4-tetrahydroisoquinoline] as the molecule, how does the inhibition at 0.1 µM [1] read?
A: 75%

Q: Which inhibition at 0.1 µM [1] does the source give for `CN1Cc2cc(-c3cncnc3)ccc2C(c2cc3ccccc3s2)C1` (racemic) [Example 73, (±)-4-(benzo[b]thiophen-2-yl)-2-methyl-7-(pyrimidin-5-yl)-1,2,3,4-tetrahydroisoquinoline] here?
A: 73%

Q: For `COc1cccc2cc(C3CN(C)Cc4ccccc43)oc12` (single isomer, unassigned), which Ki [1] is on record?
A: 0.022 µM

Q: How did the Ki [2] turn out when `CN1Cc2cc(-c3cccnn3)ccc2C(c2ccc3sccc3c2)C1` (single isomer, unassigned) was run?
A: 0.0085 µM

Q: `CN1Cc2cc(CN3CCOCC3)ccc2C(c2cc3ccccc3s2)C1` (single isomer, unassigned) (as salt: maleate) was tested. Which Ki [2] did it give?
A: 0.0354 µM

Q: With `CN1Cc2ccccc2C(c2cc(Cl)c3[nH]ncc3c2)C1` (single isomer, unassigned; (-)) [Example 125, (−)-4-(7-chloro-1H-indazol-5-yl)-2-methyl-1,2,3,4-tetrahydoisoquinoline, maleate salt] as the molecule, how does the Ki [1] read?
A: 0.0026 µM

Q: How did the Ki [1] turn out when `Cc1cccc2c1C(c1ccc3ccccc3c1)CN(C)C2` (stereo not shown) [Example 56, 2,5-dimethyl-4-(naphthalen-2-yl)-1,2,3,4-tetrahydroisoquinoline] was run?
A: 0.0293 µM

Structures can show the parent of a compound that is named as a salt.
